Test results taken from ChEMBL document CHEMBL5344475, “Indole-containing pharmaceuticals: targets, pharmacological activities, and SAR studies” (RSC Med Chem, 2024).

By UniProt entry, the sequences of proteins in these tests, tags left out.
UniProt P28222, whole entry: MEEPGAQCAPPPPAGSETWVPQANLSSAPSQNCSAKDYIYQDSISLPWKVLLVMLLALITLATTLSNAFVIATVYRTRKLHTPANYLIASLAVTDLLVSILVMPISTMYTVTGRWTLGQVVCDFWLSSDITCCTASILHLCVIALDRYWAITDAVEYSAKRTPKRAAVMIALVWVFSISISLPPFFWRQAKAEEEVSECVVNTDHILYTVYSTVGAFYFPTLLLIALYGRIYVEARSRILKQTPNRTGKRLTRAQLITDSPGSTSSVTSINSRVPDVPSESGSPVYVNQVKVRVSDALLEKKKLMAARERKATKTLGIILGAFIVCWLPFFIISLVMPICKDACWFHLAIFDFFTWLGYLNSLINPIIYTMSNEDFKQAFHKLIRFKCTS

Molecular target: 5-hydroxytryptamine receptor 1B (Homo sapiens, UniProt P28222)
Test: Binding affinity to 5-HT1B receptor (unknown origin) assessed as inhibition constant

Compound: CN[C@@H]1CCc2[nH]c3ccc(C(N)=O)cc3c2C1 [FROVATRIPTAN]
- Ki: 4.4 nM
